# Apparent affinities of Ab-14 variants for a coronavirus HR2 peptide

Target peptide (SARS-CoV-2 spike, HR2 region): PDVDLGDISGINAS

Each scFv is VH, the linker GGGGSGGGGSGGGGS, VL, as in the parent Ab-14, and differs from it in the CDRs of the heavy chain only.
VH: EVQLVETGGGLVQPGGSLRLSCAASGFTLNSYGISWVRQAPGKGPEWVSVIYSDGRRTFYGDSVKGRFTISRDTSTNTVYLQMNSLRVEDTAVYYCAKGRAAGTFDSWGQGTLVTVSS
VL: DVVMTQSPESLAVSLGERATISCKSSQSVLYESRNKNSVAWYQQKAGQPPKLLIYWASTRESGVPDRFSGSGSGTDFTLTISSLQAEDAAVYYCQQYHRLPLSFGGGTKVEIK

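Library AAYL49 holds single substitutions and randomly drawn double and triple substitutions in the CDRs. Affinity was read by AlphaSeq, a pooled yeast mating assay with surface-displayed partners. After mating in shaken culture at 30 °C for 16 h, diploids were selected and their barcode pairs sequenced. Scores were corrected for input abundance and mapped to Kd with protein pairs of known affinity run in the same pool. There are three technical replicates.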

Each variant's VH is given in full.
Affinities are written as log10 Kd with Kd in nM; a lower number is a better binder.
Replicates are averaged; those with no signal do not enter the mean.
"no signal" marks a missing value. The strain was present, yet no cells mated with the target were sequenced in any replicate, which points to weak or no binding.
In this assay the parent's reference entry averaged 0.65; its copy inside this library read 4.11 (one replicate of three).
Nonspecific signal, from three strains lacking the peptide, appeared in 15% of pairings of library AAYL49, centred on 4.06 (5% of these signals below 2.83); values are not corrected for it.

mean log10 Kd (nM)	replicates with signal	VH
no signal	0 of 3	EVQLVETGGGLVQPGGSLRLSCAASGFTLNSYRISWVRQAPGKGPEWVSVIYSDGRRTCYGDSVKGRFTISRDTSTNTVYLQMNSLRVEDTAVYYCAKGRAAGKFDSWGQGTLVTVSS
5.81	1 of 3	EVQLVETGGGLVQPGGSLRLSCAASGFTLNSYGISWVRQAPGKGPEWVSVIYSSGRRTFYGDSVKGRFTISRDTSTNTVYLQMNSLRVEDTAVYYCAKGRAGMTFDSWGQGTLVTVSS
2.31	2 of 3	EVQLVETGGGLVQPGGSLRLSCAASGFTLNSYGISWVRQAPGKGPEWVSVIYSDGDRTFYGDSVIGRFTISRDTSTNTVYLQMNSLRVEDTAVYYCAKGRAAGTFDSWGQGTLVTVSS
5.84	1 of 3	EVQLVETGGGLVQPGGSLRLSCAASGFTWNSYGISWVRQAPGKGPEWVSMIYSDGRRTFYGDSVKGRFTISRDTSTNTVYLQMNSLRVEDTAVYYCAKCRAAGTFDSWGQGTLVTVSS
no signal	0 of 3	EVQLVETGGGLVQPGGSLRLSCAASGFTLYSYGMSWVRQAPGKGPEWVSVIYSDCRRTFYGDSVKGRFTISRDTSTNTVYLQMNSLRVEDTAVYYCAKGRAAGTFDSWGQGTLVTVSS
4.91	1 of 3	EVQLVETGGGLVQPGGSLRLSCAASGFTLNSYIISWVRQAPGKGPEWVSVIYSDGRRTFYTDSVKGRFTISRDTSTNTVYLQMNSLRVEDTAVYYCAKGRAAGTFDSWGQGTLVTVSS
no signal	0 of 3	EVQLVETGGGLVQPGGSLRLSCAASGFYLNSYGISWVRQAPGKGPEWVSVIYSDGRRMFYGDSVKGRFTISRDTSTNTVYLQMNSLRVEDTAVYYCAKGRAAGTMDSWGQGTLVTVSS
0.87	3 of 3	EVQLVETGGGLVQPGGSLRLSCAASPFTLNSYGISWVRQAPGKGPEWVSVIYSDGRRTFYSDSVKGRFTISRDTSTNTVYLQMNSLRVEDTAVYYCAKYRAAGTFDSWGQGTLVTVSS
no signal	0 of 3	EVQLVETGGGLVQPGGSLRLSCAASGFTLNSYGISWVRQAPGKGPEWVSVIYSDWRRTFYGDSVKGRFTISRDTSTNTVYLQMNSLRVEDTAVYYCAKGRAANTFYSWGQGTLVTVSS
3.93	1 of 3	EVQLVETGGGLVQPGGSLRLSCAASGFTLGSYGISWVRQAPGKGPEWVSRIYSDGRRTFYGDPVKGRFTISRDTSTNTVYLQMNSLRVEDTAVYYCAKGRAAGTFDSWGQGTLVTVSS
3.72	1 of 3	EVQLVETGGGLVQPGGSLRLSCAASGFTGNSYGISWVRQAPGKGPEWVSEIYSDGRCTFYGDSVKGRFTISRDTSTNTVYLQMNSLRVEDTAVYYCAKGRAAGTFDSWGQGTLVTVSS
5.89	1 of 3	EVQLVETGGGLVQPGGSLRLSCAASGFTLNSYAISWVRQAPGKGPEWVSVIYSDGRRTFYLDSVKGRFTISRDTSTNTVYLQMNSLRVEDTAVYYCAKGRAAGTMDSWGQGTLVTVSS
0.53	3 of 3	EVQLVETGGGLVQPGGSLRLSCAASGFTLNSYGISWVRQAPGKGPEWVSVIYSDGYRTFYADSVKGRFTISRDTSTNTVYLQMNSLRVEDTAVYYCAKGRAALTFDSWGQGTLVTVSS
no signal	0 of 3	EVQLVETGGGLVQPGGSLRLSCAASGFTLNGYGISWVRQAPGKGPEWVSVIYVDGRRTFYNDSVKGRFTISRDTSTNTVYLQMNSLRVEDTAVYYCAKGRAAGTFDSWGQGTLVTVSS
no signal	0 of 3	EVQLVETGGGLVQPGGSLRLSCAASGFTLNSYRPSWVRQAPGKGPEWVSVIYSDGRRTFYGDSVKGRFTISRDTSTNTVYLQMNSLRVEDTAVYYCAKGRAAYTFDSWGQGTLVTVSS
no signal	0 of 3	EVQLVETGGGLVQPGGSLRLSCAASGFTLNSYGISWVRQAPGKGPEWVSVIYSDYRRPFYGDSVKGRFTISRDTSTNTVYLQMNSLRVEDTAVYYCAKGRAAYTFDSWGQGTLVTVSS
4.15	1 of 3	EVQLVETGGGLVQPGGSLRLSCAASGSTLNSYGISWVRQAPGKGPEWVSHIYSDGRRTFYGDSVKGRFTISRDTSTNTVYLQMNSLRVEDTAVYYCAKGRAAGTFQSWGQGTLVTVSS
no signal	0 of 3	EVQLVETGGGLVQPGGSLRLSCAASGFTPNSYGIGWVRQAPGKGPEWVSVIYSDGRRTFYGDSVKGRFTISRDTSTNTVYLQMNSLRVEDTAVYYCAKGRVAGTFDSWGQGTLVTVSS
2.77	1 of 3	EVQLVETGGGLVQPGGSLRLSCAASGFTLNSQGISWVRQAPGKGPEWVSVIYSDGRRTWYGDSIKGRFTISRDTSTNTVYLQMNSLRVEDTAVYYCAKGRAAGTFDSWGQGTLVTVSS
3.57	1 of 3	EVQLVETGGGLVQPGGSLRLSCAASGFTLESYGISWVRQAPGKGPEWVSVIYSDGRRGFYGDSVKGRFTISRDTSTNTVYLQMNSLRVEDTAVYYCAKGRAAGTFDIWGQGTLVTVSS
5.86	1 of 3	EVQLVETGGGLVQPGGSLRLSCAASGFTLNSYGRSWVRQAPGKGPEWVSVIYSDGRRTTYGDSVKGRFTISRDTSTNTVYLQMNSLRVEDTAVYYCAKGRKAGTFDSWGQGTLVTVSS
no signal	0 of 3	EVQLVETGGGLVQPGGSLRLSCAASGFTLMAYGISWVRQAPGKGPEWVSVIYMDGRRTFYGDSVKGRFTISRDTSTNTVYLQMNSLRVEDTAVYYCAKGRAAGTFDSWGQGTLVTVSS

Picked from the list: the 2 lowest averages where every replicate gave a value.

| VH | mean log10 Kd (nM) | replicates with signal |
|---|---|---|
| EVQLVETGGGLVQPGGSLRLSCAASGFTLNSYGISWVRQAPGKGPEWVSVIYSDGYRTFYADSVKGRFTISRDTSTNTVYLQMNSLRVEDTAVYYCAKGRAALTFDSWGQGTLVTVSS | 0.53 | 3 of 3 |
| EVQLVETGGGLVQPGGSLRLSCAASPFTLNSYGISWVRQAPGKGPEWVSVIYSDGRRTFYSDSVKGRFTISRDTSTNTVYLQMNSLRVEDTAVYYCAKYRAAGTFDSWGQGTLVTVSS | 0.87 | 3 of 3 |

Data: MIT Lincoln Laboratory AlphaSeq set, Engelhart et al. 2022, doi:10.1038/s41597-022-01779-4, as distributed in FLAb.